Values of other authors, collected in patent publication US5672603A, “Apoptosis regulating composition” (Otsuka Pharmaceutical Co., Ltd., priority 1991, dated 1997).

B1: IL-3: hematopoietic system cytokine (protein, UniProt P08700 20-152, looked up)
Interleukin-3: APMTQTTPLKTSWVNCSNMIDEIITHLKQPPLPLLDFNNLNGEDQDILMENNLRRPNLEAFNRAVKSLQNASAIESILKNLLPCLPLATAAPTRHPIHIKDGDWNEFRRKLTFYLKTLENAQAQQTTLSLAIF

Test system: apoptosis
Settings: literature; cited from earlier work

| Molecule | Repression of apoptosis |
| --- | --- |
| IL-2: IL-2 | repress apoptosis |
| B1 | repress apoptosis |
